These are literature values, as cited in article PMC8679839, “Interleukin‐2‐inducible T‐cell kinase (Itk) signaling regulates potent noncanonical regulatory T cells” (Clinical and Translational Medicine, 2021).

In the data set the test system is ICOS‐expressing Tregs. The conditions noted are these: IL-2 therapy. From the text: Published data have shown that ICOS‐deficient Tregs cannot suppress inflammation.[35] […] Our data provided evidence that inhibition of ITK increases ncTregs which express ICOS, and high expression of ICOS is pivotal for Treg function.[37]

On to IL‐2: IL‐2 therapy, for which the “effect on ICOS-expressing Tregs” value is listed as “significantly affects ICOS‐expressing Tregs”.
